We go through one compound from patent US5292751A, “5,7-dihydroxy-2-methyl-8-(4-(3-hydroxy-1-(1-propyl))pip eridinyl)-4H-1-benzopyran-4-one, its preparation and its use” (priority 1991, dated 1994).

Data set [1] is classed as in vivo. Conditions: rat, p.o.; LD50 over carrageenin ED50. As for the experimental part:
1. Acute inflammation model:
Systemic anti-inflammatory action on carrageenin-induced paw oedema in rats.
Male Charles Foster rats (120-150 g) were fasted for 18 hours, with water ad libitum. The test compound suspended in Tween^R 80 and 0.5% C.M.C. was administered orally. The control group received Tween 80 and 0.5% C.M.C. 0.05 ml of 0.5% carrageenin suspension was injected subcutaneously into the plantar region of the left hind paw. Using a Maclab differential volume meter, the paw volume was determined before the carrageenin injection and 3 and 6 hours after the injection. The percentage decrease in paw volume was calculated by the following equation: [formula] The ED50 value was calculated from the dose/response curve. Six animals were used for each group.

A short description of the next data set: in vivo. Conditions: po, rat.

Usually LD50 stands for the dose at which mortality reaches 50%. The low end stands for greater toxicity, the high end for lower toxicity. On to `Cc1cc(=O)c2c(O)cc(O)c(C3CCN(C)CC3O)c2o1` (centres unmarked) [Compound B], for which the “Therapeutic index (LD50 ED50)” value in data set [1] is listed as 9.4. The LD50 in the data set “in vivo” is 82.5 mg/kg.
